# Assay results published in US5721207A, “Method for treatment of pain” (Innapharma, Inc., priority 1995, dated 1998).
# Experiments:
# rat [1] = test: Rat hot plate analgesiometric test, dose response of single intrathecal elcatonin (Example 8); format: in vivo; settings: 0.8 IU/kg intrathecal
# Experimental: The doses tested were 0.2, 0.8, 1.6, 2.4, and 3.6 IU/kg. The desired dose was injected in a volume of 37.5 μL/kg, followed by a catheter wash-out with 10 μL saline, via the intrathecal route.
# A total of 113 adult male rats, of weights of 350 g to 400 g, were used. Intrathecal catheters were surgically implanted as described in Example 4.
# Data were analyzed for statistical significance, and a point estimate (mean and standard deviation) are used to analyze analgesic activity for each dose of the drug for a selected time period. Nonparametric statistics were calculated to address the level of significance of any difference between control and test group.
# rat [2] = test: Rat hot plate test, single intravenous elcatonin (Example 10); format: in vivo; settings: 10-300 IU/kg
# Experimental: A total of 24 rats, ranging in weight from 320 to 420 g, was used in this study. Four to eight rats were used for each dose level. Elcatonin was administered in a volume of 0.5 ml/mg body weight by tail vein injection. The doses used were 10, 30, 100 and 300 IU/kg (1.61, 4.83, 16.1 and 48.3 μg/kg, respectively).
# rat [3] = test: Rat hot plate test, five consecutive daily intrathecal doses of elcatonin (Example 11); format: in vivo; settings: 4.4 IU/kg intrathecal
# Experimental: This study assesses the effectiveness of repeated doses of intrathecally administered elcatonin for analgesia. Intrathecal catheters were implanted in rats as described hereinabove, and a 7-10 day period thereafter allowed for full recovery from the surgical procedures.
# Eighteen rats were assigned to three treatment groups of six rats per group. The study is conducted in two treatment phases at one week intervals. Treatment Group I rats receive no treatment. Group II rats receive five consecutive daily intrathecal doses of sterile physiological saline (vehicle control). Group III rats receive five consecutive daily doses of elcatonin (4.4 IU/kg body weight).
# For each treatment, hot plate latencies are determined as described in Example 5 herein above at 0 minutes (predose, baseline), 1 hour, 3 hours, and 24 hours following injection on the first, third, and fifth study days.
# rat [4] = test: Rat hot plate test, 10 single daily intrathecal doses of elcatonin over 11 days (Example 12); format: in vivo; settings: 4.4 IU/kg intrathecal, 10 daily doses
# Experimental: This study assesses the effectiveness of repeated doses of 10 single consecutive daily doses of elcatonin administered via the intrathecal route in the rat during two 5 day treatment phases separated by a 48 hour nontreatment interval.
# Intrathecal catheters were implanted in rats as described hereinabove, and a 7-10 day period thereafter allowed for full recovery from the surgical procedures. Nine rats were assigned to three treatment groups of three rats per group. The study is conducted in two 5 day treatment phases separated by a 48 hour nontreatment interval. Treatment Group I rats receive no treatment (sham injection). In each treatment phase, Group II rats received five consecutive daily intrathecal doses of sterile physiological saline (vehicle control), for a total of 10 injections per study treatment. In each treatment phase, Group III rats each received five consecutive daily doses of elcatonin (4.4 IU/kg body weight), for a total of 10 injections per study treatment (Table 4).
# For each treatment, hot plate latencies are determined as described in Example 5 hereinabove at 0 minutes (predose, baseline), 1 hour, 3 hours, and 24 hours following injection on the 1st, 3rd, 5th, 7th, 9th and 11th study days (Table 4).
# rat [5] = test: Rat hot plate test, intrathecal elcatonin with 0.1% human serum albumin (Example 13); format: in vivo; settings: 4.4 IU/kg intrathecal, with or without 0.1% HSA
# Experimental: On each study day, a standard 25% (wt/vol) solution of HSA is diluted under aseptic conditions with physiological saline ([…] of NaCl, USP grade) to achieve the desired stock solution concentration of 0.2% (wt/vol). Where needed, an aliquot of elcatonin solution was mixed with an equal volume of 0.2% HSA to give a final concentration of 0.1% HSA in the elcatonin-containing composition for administration.
# Thirty-two male rats (320-420 g) are obtained, adapted, catheterized and recovered as described hereinabove. Group I rats are injected intrathecally with elcatonin in physiological saline at a dose of 4.4 IU/kg, in a volume of 10 μl/kg. Group II rats are injected intrathecally with a dose of 4.4 IU/kg in physiological saline containing 0.1% HSA, in a volume of 10 μL/kg. Group III rats are injected with physiological saline containing 0.1% HSA, 10 μL/kg. Each dose is followed by a washout of 8 μL of physiological saline.
# In each of the study groups, hot plate latencies are determined at 0 minutes (baseline, predose), 1 hour, 3 hours, 6 hours, and 24 hours following intrathecal injections on the 1st, 3rd and 5th study days.
# rat [6] = test system: rat
substance,measurement,setting,value
"[Des-Cys^1,ASU^7 ]-Calcitonin, Eel [Elcatonin]",mortality,rat [1],A fourth rat died 24 hr after the intrathecal administration
same,"body weight changes, morbidity, mortality, clinical and behavioral abnormalities",rat [2],"no significant body weight changes, morbidity, mortality or clinical and behavioral abnormalities were observed"
same,"body weight changes, morbidity, mortality, clinical and behavioral abnormalities",rat [3],"no significant body weight changes, morbidity, mortality or clinical and behavioral abnormalities were observed"
same,"body weight changes, morbidity, mortality, clinical and behavioral abnormalities",rat [4],"no significant body weight changes, morbidity, mortality or clinical and behavioral abnormalities were observed"
same,"body weight changes, morbidity, mortality, clinical and behavioral abnormalities",rat [5],"no significant body weight changes, morbidity, mortality or clinical and behavioral abnormalities were observed"
same,myoclonia,rat [6]; 3.6 and 5.2 IU/kg intrathecal,Short-Term tail (2) and hind limb (1) myoclonia occurred in two animals
same,clinical or behavioral abnormalities,rat [6]; 24 hour observation period following intrathecal administration,No clinical or behavioral abnormalities were noted
same,body weight changes,rat [6]; intrathecal,unremarkable
same,mortality,rat [6]; intrathecal,no mortality was observed

# Read-outs that look alike come from different tables or passages of the source.
